## Measured affinities in a library of Ab-14 light chain variants

Values reported by Engelhart et al. 2022, doi:10.1038/s41597-022-01779-4 (FLAb copy).

Target: peptide PDVDLGDISGINAS, taken from heptad repeat 2 (HR2) of SARS-CoV-2 spike.

Ab-14 is the parent antibody, in scFv form: VH, then a (GGGGS)3 linker, then VL. The heavy chain is unchanged in all variants.
VH: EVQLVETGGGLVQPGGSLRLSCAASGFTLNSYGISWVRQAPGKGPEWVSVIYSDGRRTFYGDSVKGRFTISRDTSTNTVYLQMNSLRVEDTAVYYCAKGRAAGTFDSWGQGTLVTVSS
VL: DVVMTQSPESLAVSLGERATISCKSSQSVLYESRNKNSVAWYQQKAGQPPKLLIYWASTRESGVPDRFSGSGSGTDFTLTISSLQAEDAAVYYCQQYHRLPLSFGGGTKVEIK

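In library AAYL50, one, two or three CDR residues were substituted; doubles and triples were drawn at random. Affinity was read by AlphaSeq, a pooled yeast mating assay with surface-displayed partners. The frequency of each diploid, read from paired DNA barcodes, reflects how well the two displayed proteins bind. Each replicate has its own calibration line, from reference interactions of the BCL2 family. Mating was done three times.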

Positions count from residue 1 of the parent VL; E32I puts I in place of E. Scale: log10 of Kd in nM, estimated from mating counts; low values are strong binders. The mean shown is taken over the replicates in which the pair was detected. A pair that was not seen in that replicate is written "ND"; this usually means weak binding, but a binder can also be missed. Background: pairings of library AAYL50 with three empty control strains gave a value in 18% of cases (median 4.19, 5th percentile 2.99). Values in that range, when seen in few replicates, are hard to tell from nonspecific mating. For each scFv, signals with the empty controls are counted beside the result, with their mean in brackets.

{"changes": "E32I N37G S103W", "log10 Kd, replicates": "ND ND 5.83", "log10 Kd (nM), mean": "5.83", "control signals": "2/9 (3.14)"}
{"changes": "V29T V39Q S62R", "log10 Kd, replicates": "4.68 4.30 3.74", "log10 Kd (nM), mean": "4.24", "control signals": "6/9 (4.70)"}
{"changes": "K24F R34N L102A", "log10 Kd, replicates": "1.10 1.03 1.29", "log10 Kd (nM), mean": "1.14", "control signals": "2/9 (4.17)"}
{"changes": "V29I Y31L S38T", "log10 Kd, replicates": "2.48 2.51 ND", "log10 Kd (nM), mean": "2.49", "control signals": "0/9"}
{"changes": "K24F K36S W56C", "log10 Kd, replicates": "1.78 1.64 1.63", "log10 Kd (nM), mean": "1.69", "control signals": "0/9"}
{"changes": "E61V S62F S103F", "log10 Kd, replicates": "2.51 2.22 2.33", "log10 Kd (nM), mean": "2.35", "control signals": "4/9 (4.50)"}
{"changes": "S38W S103A", "log10 Kd, replicates": "1.45 1.50 1.39", "log10 Kd (nM), mean": "1.44", "control signals": "1/9 (3.44)"}
{"changes": "S25Q S38E R99P", "log10 Kd, replicates": "1.31 1.46 1.30", "log10 Kd (nM), mean": "1.36", "control signals": "0/9"}
{"changes": "Y31I S38K Q95S", "log10 Kd, replicates": "3.80 ND ND", "log10 Kd (nM), mean": "3.80", "control signals": "1/9 (3.24)"}
{"changes": "L30E S38H R99P", "log10 Kd, replicates": "1.60 2.01 2.07", "log10 Kd (nM), mean": "1.89", "control signals": "0/9"}
{"changes": "S28A R34W S38W", "log10 Kd, replicates": "ND ND ND", "log10 Kd (nM), mean": "ND", "control signals": "0/9"}
{"changes": "E32Y A40K H98C", "log10 Kd, replicates": "ND ND ND", "log10 Kd (nM), mean": "ND", "control signals": "1/9 (5.15)"}
{"changes": "E61N R99S S103K", "log10 Kd, replicates": "ND 3.30 4.71", "log10 Kd (nM), mean": "4.00", "control signals": "2/9 (3.82)"}
{"changes": "Q27N N37T A57N", "log10 Kd, replicates": "ND ND ND", "log10 Kd (nM), mean": "ND", "control signals": "1/9 (4.62)"}
{"changes": "S28V Q96E H98C", "log10 Kd, replicates": "ND 3.65 4.73", "log10 Kd (nM), mean": "4.19", "control signals": "3/9 (4.01)"}
{"changes": "V39G S62D L102P", "log10 Kd, replicates": "ND ND ND", "log10 Kd (nM), mean": "ND", "control signals": "0/9"}
{"changes": "S25E N35F V39Q", "log10 Kd, replicates": "4.83 4.21 ND", "log10 Kd (nM), mean": "4.52", "control signals": "3/9 (3.79)"}
{"changes": "Q95V R99K S103M", "log10 Kd, replicates": "5.05 ND ND", "log10 Kd (nM), mean": "5.05", "control signals": "2/9 (3.90)"}
{"changes": "S28K Y97S L100I", "log10 Kd, replicates": "ND ND ND", "log10 Kd (nM), mean": "ND", "control signals": "2/9 (3.95)"}
{"changes": "S33R V39N Y97S", "log10 Kd, replicates": "ND ND ND", "log10 Kd (nM), mean": "ND", "control signals": "0/9"}
{"changes": "K36G V39H L100D", "log10 Kd, replicates": "ND ND ND", "log10 Kd (nM), mean": "ND", "control signals": "0/9"}
{"changes": "R34G S38M", "log10 Kd, replicates": "0.93 1.26 1.29", "log10 Kd (nM), mean": "1.16", "control signals": "2/9 (4.37)"}
{"changes": "L30H Y97L L100A", "log10 Kd, replicates": "ND ND 5.05", "log10 Kd (nM), mean": "5.05", "control signals": "3/9 (4.60)"}
{"changes": "Q95A P101K L102N", "log10 Kd, replicates": "2.72 2.84 ND", "log10 Kd (nM), mean": "2.78", "control signals": "0/9"}
{"changes": "S26E H98Q S103W", "log10 Kd, replicates": "0.58 0.82 0.71", "log10 Kd (nM), mean": "0.70", "control signals": "4/9 (5.40)"}

Repeated from above, the 4 best binders with a signal in all replicates:

changes,"log10 Kd, replicates","log10 Kd (nM), mean",control signals
S26E H98Q S103W,0.58 0.82 0.71,0.70,4/9 (5.40)
K24F R34N L102A,1.10 1.03 1.29,1.14,2/9 (4.17)
R34G S38M,0.93 1.26 1.29,1.16,2/9 (4.37)
S25Q S38E R99P,1.31 1.46 1.30,1.36,0/9